# AlphaSeq binding of Ab-14 heavy chain variants to a spike HR2 peptide

Binding partner: SARS-CoV-2 spike HR2 peptide, sequence PDVDLGDISGINAS.

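The parent was found by panning a naive human phage display library on the peptide. Designed CDR sequences, proposed from the first random library and measured here. Several design methods are mixed in this list. The scFvs were displayed on barcoded MATa yeast, the peptide on MATalpha yeast. Mating (16 h, 30 °C) was followed by selection of diploids and sequencing of their barcodes. Each replicate has its own calibration line, from reference interactions of the BCL2 family. Mating was done six times.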

Each scFv is VH, the linker GGGGSGGGGSGGGGS, VL, as in the parent Ab-14, and differs from it in the CDRs of the heavy chain only.
VH: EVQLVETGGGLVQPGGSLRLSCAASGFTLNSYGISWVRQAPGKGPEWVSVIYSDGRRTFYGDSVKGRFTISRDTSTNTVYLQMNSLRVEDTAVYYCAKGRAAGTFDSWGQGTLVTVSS
VL: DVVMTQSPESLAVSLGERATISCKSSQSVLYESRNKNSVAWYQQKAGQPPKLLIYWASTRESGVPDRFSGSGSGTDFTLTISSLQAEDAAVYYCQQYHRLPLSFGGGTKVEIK

Each variant is given by its three heavy chain CDRs, as the data file delimits them; those of the parent are GFTLNSYGIS, VIYSDGRRTFYGDSVK, GRAAGTFDS.
Values are apparent Kd, the geometric mean of the replicates that gave a signal; lower means stronger binding.
"no signal" means that the variant was in the library but no mating with the target was seen in any replicate; the authors take this as a sign of poor binding, and no number exists.
A sequence measured in both rounds can read differently, since the two assays cover different ranges.

{"CDR-H1": "GFTLNEYGIS", "CDR-H2": "VIYSDGRRTFYGDSVK", "CDR-H3": "GRAAVTFAK", "Kd": "no signal", "seen in": "0/6"}
{"CDR-H1": "GFTLSSYGIS", "CDR-H2": "VIYADGRRTFYTDSVK", "CDR-H3": "GRAAGTFDS", "Kd": "3.0 nM", "seen in": "6/6"}
{"CDR-H1": "GFSLNEYGIS", "CDR-H2": "VIYSDGRRTFYSDSVK", "CDR-H3": "GRAAGHFDS", "Kd": "570 nM", "seen in": "2/6"}
{"CDR-H1": "GFDLNSYGIS", "CDR-H2": "VIYSDGRRTFYGDSEK", "CDR-H3": "GRAAGWFNS", "Kd": "no signal", "seen in": "0/6"}
{"CDR-H1": "GVNLDEYGIS", "CDR-H2": "VIYADGKRVHYTDKVK", "CDR-H3": "GTFGDFMIV", "Kd": "no signal", "seen in": "0/6"}
{"CDR-H1": "GFSLNSYGIS", "CDR-H2": "VIYSDGRRTFYGDSVK", "CDR-H3": "GKAAGTFDT", "Kd": "10 nM", "seen in": "6/6"}
{"CDR-H1": "GFDLNEYGIS", "CDR-H2": "VIYADGRRTAYTDSVK", "CDR-H3": "GNVAGTFDI", "Kd": "300 pM", "seen in": "6/6"}
{"CDR-H1": "GFDLNSYGIS", "CDR-H2": "VIYSDGRRTFQHDSVK", "CDR-H3": "YRAAGWFNS", "Kd": "no signal", "seen in": "0/6"}
{"CDR-H1": "GFTLNSYGIS", "CDR-H2": "VIYSDGKRTFYIDRVK", "CDR-H3": "GQAAGTFDT", "Kd": "no signal", "seen in": "0/6"}
{"CDR-H1": "GFSLNEYGIS", "CDR-H2": "VIYSDGKRTFYGDSVK", "CDR-H3": "GRHAGTFDS", "Kd": "4.2 nM", "seen in": "6/6"}
{"CDR-H1": "GFELNSYGIS", "CDR-H2": "VIYSDGRRTFYGDSVK", "CDR-H3": "GWVAGTFDS", "Kd": "17 nM", "seen in": "6/6"}
{"CDR-H1": "GFNLNEYGIS", "CDR-H2": "VIYADGIREHYVDDVK", "CDR-H3": "GKHGGGKMD", "Kd": "69 pM", "seen in": "5/6"}
{"CDR-H1": "GFTLNEYGIS", "CDR-H2": "VIYSDGMRTFYGDSVK", "CDR-H3": "GRAAGTFIS", "Kd": "no signal", "seen in": "0/6"}
{"CDR-H1": "GFDLNDYGIS", "CDR-H2": "VIYADGRRTFYADSVK", "CDR-H3": "GEAAGTFDL", "Kd": "22 nM", "seen in": "5/6"}
{"CDR-H1": "GFTPNSYGIS", "CDR-H2": "VIYSDGRRTFYSDSVK", "CDR-H3": "GRAAGSFDS", "Kd": "21 nM", "seen in": "6/6"}
{"CDR-H1": "GFTLNQYGIS", "CDR-H2": "VIYSDGRRTFYQDSMK", "CDR-H3": "GRAAGCFDS", "Kd": "no signal", "seen in": "0/6"}
{"CDR-H1": "GFTLNEYGIS", "CDR-H2": "VIYSDGRRTFYGDSVK", "CDR-H3": "GRAAVTFAQ", "Kd": "29 nM", "seen in": "1/6"}
{"CDR-H1": "KFSLNSYGIS", "CDR-H2": "VIYSDGRRTFYGDSVK", "CDR-H3": "GSTAGTFDS", "Kd": "25 nM", "seen in": "4/6"}
{"CDR-H1": "GFWLNDYGIS", "CDR-H2": "VIYSDGRRTFYHDSVK", "CDR-H3": "GRIAGTFDS", "Kd": "17 nM", "seen in": "6/6"}
{"CDR-H1": "GFTLNSYGIS", "CDR-H2": "VIYSDGRRTFYGDSVK", "CDR-H3": "GKHAGTFDT", "Kd": "55 nM", "seen in": "2/6"}
{"CDR-H1": "GFDLNEYGIS", "CDR-H2": "VIYADGMRTAYVDTVK", "CDR-H3": "GNVAGTFDV", "Kd": "2.2 nM", "seen in": "6/6"}
{"CDR-H1": "GFTNNSYGIS", "CDR-H2": "VIYSDGRRTFYQDSVK", "CDR-H3": "GSAAGTFDD", "Kd": "2.3 nM", "seen in": "6/6"}
{"CDR-H1": "GFKLEEYGIS", "CDR-H2": "VIYADGLRVFYADSVK", "CDR-H3": "GGFDGYKFI", "Kd": "no signal", "seen in": "0/6"}
{"CDR-H1": "GFTPNSYGIS", "CDR-H2": "VIYSDGARTFYGDEVK", "CDR-H3": "GRAAGQFHS", "Kd": "no signal", "seen in": "0/6"}
{"CDR-H1": "GFDLNEYGIS", "CDR-H2": "VIYADGKRTYYADSVK", "CDR-H3": "GETAGTFDV", "Kd": "470 pM", "seen in": "6/6"}
{"CDR-H1": "GFSLNSYGIS", "CDR-H2": "VIYSDGRRTFYADSVK", "CDR-H3": "GQAAGTFDA", "Kd": "520 pM", "seen in": "6/6"}
{"CDR-H1": "GFDLNEYGIS", "CDR-H2": "VIYADGLRTAYSDDVK", "CDR-H3": "GENAGTFDV", "Kd": "460 pM", "seen in": "6/6"}

3 of these entries, quoted again:

CDR-H1,CDR-H2,CDR-H3,Kd,seen in
GVNLDEYGIS,VIYADGKRVHYTDKVK,GTFGDFMIV,no signal,0/6
GFELNSYGIS,VIYSDGRRTFYGDSVK,GWVAGTFDS,17 nM,6/6
GFDLNEYGIS,VIYADGRRTAYTDSVK,GNVAGTFDI,300 pM,6/6

The authors' rule: three or more of the six replicates give a measured affinity, fewer mean a poor binder.
The parent sequence was in this pool as ten entries: three were never detected, three once, and four in most replicates, with averages from 2.2 nM to 240 nM.
Background: pairings of all heavy chain designs with three empty control strains gave a value in 1% of cases (median 120 nM, 5th percentile 7.0 nM). Values in that range, when seen in few replicates, are hard to tell from nonspecific mating.

Source: Li et al. 2023 (doi:10.1038/s41467-023-39022-2), MIT Lincoln Laboratory and A-Alpha Bio; data file from the FLAb repository.